Experimental data: PubChem BioAssay AID1875 (Broad Institute, 2009)
The entries are a selection whose mix differs from that of the whole data set. Calls of active or inactive are those of the source.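 Rule for the calls: active = lowest replicate activity score at least 50, where 100 means six control SD above control mean; inconclusive = lowest score under 50 but half or more replicates reach 50; inactive = the rest.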

assay: polyadenylation inhibitors in yeast reporter cells, primary screen, luminescence, S. cerevisiae (AID 1875);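 note: yeast exposed to compound for 9 h at 30 °C; higher score means more reporter readthrough which indicates perturbed polyadenylation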; settings: S. cerevisiae SKY197-pL101 polyadenylation reporter, beta-gal luminescence; at 12 µM; active compounds read high; efflux-impaired pdr1/pdr3 knockout yeast; score 100 = 6 SD above DMSO

Compound	activity score
COc1ccc(C(=O)NCC2(N3CCOCC3)CCCCC2)cc1OC	inactive: -19.6%
O=C(OC1CN2CCC1CC2)C1c2ccccc2C=Cc2ccccc21 (centres undefined)	inactive: 2.33%
CCc1cc(C(=O)NCC2(N3CCCCC3)CCCCC2)sc1C	inactive: 7.81%
N/C(=N\O)c1c(N)no[n+]1[O-]	inactive: 8.77%
CCOC(=O)N1CCC(Nc2ccc(C)cc2)CC1	inactive: 3.36%
CC(C)(C)OC(=O)N1CCC(N(C(=O)c2ccccc2)c2ccc(Cl)cc2)CC1	inactive: 26.1%
N#Cc1ccc(C(=O)NCC2(N3CCCCC3)CCCCC2)cc1	inactive: 10.6%
c1ccc(CN2CCC(Nc3ccccc3)CC2)cc1	inactive: 13.8%
CCCN1CCC(Nc2cc(OC)cc(OC)c2)CC1	inactive: 7.13%
CN(C)C1(CNC(=O)c2cccc(C#N)c2)CCCCC1	inactive: -0.442%
Cc1ccc(C(=O)NCC2(N3CCCCC3)CCCCC2)o1	inactive: -0.26%
Fc1ccccc1NC1CCN(Cc2ccccc2)CC1	inactive: 10.4%
COc1cc(OC)cc(C(=O)NCC2(N3CCCCC3)CCCCC2)c1	inactive: -3.65%
CN(C)c1ccc(C(=O)NCC2(N3CCCCC3)CCCCC2)cc1	inactive: 3.94%
CCN1CCC(Nc2cccc(F)c2)CC1	inactive: 1.04%
CCCOc1ccc(C(=O)NCC2(N(C)C)CCCCC2)cc1	inactive: 9.52%
CC(C)(C)OC(=O)N1CCC(Nc2ccccc2)CC1	inactive: -16.7%
CCOc1ncccc1C(=O)NCC1(N2CCOCC2)CCCCC1	inactive: -5.94%
CN1CCC(Nc2ccc(F)c(Cl)c2)CC1	inactive: 23.1%
CCCOc1ccc(C)cc1CN(CCCl)CCCl	inactive: 8.06%
CN1CCC(Nc2ccc(Cl)cc2)CC1	inactive: 22.1%
CCC(CO)(C(=O)OC1CN2CCC1CC2)c1ccccc1 (centres undefined)	inactive: -4.51%
COc1cc(OC)cc(C(=O)NCC2(N3CCOCC3)CCCCC2)c1	inactive: 9.16%
COc1cccc(C(=O)N(c2cc(C)cc(C)c2)C2CCN(C(=O)OC(C)(C)C)CC2)c1	inactive: -14.8%
CSc1ccccc1C(=O)NCC1(N2CCCCC2)CCCCC1	inactive: 5.24%
O=C(NCC1(N2CCCCC2)CCCCC1)c1ccc(=O)[nH]c1	inactive: -4.7%
COc1ccc(C(=O)NCC2(N3CCCCC3)CCCCC2)cc1	inactive: 3.22%
CC(C)(C)OC(=O)N1CCC(N(C(=O)c2ccccc2)c2ccc(F)cc2)CC1	inactive: -17.2%
CCOC(=O)N1CCC(Nc2ccc(OC)cc2)CC1	inactive: 0.0508%
